Assay results reported in patent publication US6630496B1, “Inhibitors of phospholipase enzymes” (Genetics Institute LLC, priority 1996, dated 2003).

The chains behind the UniProt entries cited, without tags or fusion partners.
UniProt P47712, whole entry: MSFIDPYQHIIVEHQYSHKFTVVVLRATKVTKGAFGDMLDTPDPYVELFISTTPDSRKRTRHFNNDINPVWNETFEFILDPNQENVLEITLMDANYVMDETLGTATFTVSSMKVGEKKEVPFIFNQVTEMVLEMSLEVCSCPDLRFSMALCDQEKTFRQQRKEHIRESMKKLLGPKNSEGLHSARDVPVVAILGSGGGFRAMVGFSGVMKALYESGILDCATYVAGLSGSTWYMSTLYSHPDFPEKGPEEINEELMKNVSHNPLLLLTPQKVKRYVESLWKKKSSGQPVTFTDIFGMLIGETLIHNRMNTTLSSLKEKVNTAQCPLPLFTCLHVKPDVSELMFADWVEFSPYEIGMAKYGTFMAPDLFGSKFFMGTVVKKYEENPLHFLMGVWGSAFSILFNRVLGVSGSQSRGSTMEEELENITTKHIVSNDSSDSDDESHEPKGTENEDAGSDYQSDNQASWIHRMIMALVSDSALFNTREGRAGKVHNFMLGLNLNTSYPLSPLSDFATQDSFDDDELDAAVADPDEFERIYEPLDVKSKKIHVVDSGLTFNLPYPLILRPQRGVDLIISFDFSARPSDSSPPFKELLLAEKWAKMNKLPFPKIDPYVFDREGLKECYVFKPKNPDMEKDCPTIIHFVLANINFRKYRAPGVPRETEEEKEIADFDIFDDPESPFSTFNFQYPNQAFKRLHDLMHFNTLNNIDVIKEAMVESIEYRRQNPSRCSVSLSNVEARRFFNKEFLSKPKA

Experiments:
cPLA2 [1] = target: T1, cPLA2 (Homo sapiens, UniProt P47712); assay: Coumarine assay (7-hydroxycoumarinyl 6-heptenoate hydrolysis); settings: read-out: IC50 (μM) Coumarine; 60 μM 7-hydroxycoumarinyl 6-heptenoate
Text: (§1) Tables I-VI also report data for the listed compounds in the “LysoPC” assay and the Coumarine assay (see Example 88 below). In the data columns of the tables, assay results are reported as an “IC50” value, which is the concentration of a compound which inhibits 50% of the activity of the phospholipase enzyme in such assay. Where no numerical IC50 value appears, “NA” denotes that inhibitory activity was not detected from such compound in the corresponding assay and a blank box denotes that the compound was not tested in such assay as of the time of filing of the present application.
7-hydroxycoumarinyl 6-heptenoate was used as a monomeric substrate for cPLA2 as reported previously (Huang, Z. et al., 1994, Analytical Biochemistry 222, 110-115). Inhibitors were mixed with 200 μL assay buffer (80 mM Hepes, pH 7.5, 1 mM EDTA) containing 60 μM 7-hydroxycoumarinyl 6-heptenoate. The reaction was initiated by adding 4 μg cPLA2 in 50 μL assay buffer. Hydrolysis of the 7-hydroxycoumarinyl 6-heptenoate ester was monitored in a fluorometer by exciting at 360 nm and monitoring emission at 460 nm. Enzyme activity is proportional to the increasein emission at 460 nm per minute. In the presence of a cPLA2 inhibitor, the rate of increase is less.

cPLA2 [2] = target: T1, cPLA2; assay: Soluble substrate assay (LysoPC); settings: read-out: IC50 (μM) Lyso PC; NA = inhibitory activity not detected
Text: as §1
(b) Soluble Substrate Assay (LysoPC)
1-[^14C]-palmitoyl-2-hydroxyphosphotidyl-choline (57 mCi/mmol) (final concentration 4.4 μM) was dried under a stream of nitrogen. The lipid was resuspended by vortexing 80 mM Hepes pH 7.5, 1 mM EDTA (1.2×final concentration). A typical assay consisted of lipid suspension (85 μl) to which was added consecutively the inhibitor (5 μl in DMSO) and cPLA2, 200 ng in 80 mM Hepes pH 7.5, 2 mM DTT and […]. This assay was conducted by either the manual assay or automated assay protocol described below.

With `COc1ccc(C(=O)O)cc1NC(=O)CSCC1Cc2cc(OCc3ccccc3)ccc2N1C(=O)c1ccc2ccccc2c1` (centres unmarked) the IC50 (cPLA2 [1]) was greater than 20 µM and the IC50 (cPLA2 [2]) was 12.1 µM.
